Reference: patent US11390597B2, “Salt and solid state forms of escitalopram” (priority 2017, dated 2022)

Assay: Treatment of human subjects with escitalopram gentisate composition
Conditions: human subject afflicted with a neuropsychiatric disorder, periodic administration
Description: Periodic administration is meant to include inter alia IV, oral and subcutaneous administration.

CN(C)CCCC1(c2ccc(F)cc2)OCc2cc(C#N)ccc21.O=C(O)c1cc(O)ccc1O (stereo not shown) [escitalopram gentisate]
adverse side effects / safety of the treatment: without undue adverse side effects
